Assay results as given in ChEMBL document CHEMBL1268855 (J Nat Prod, 2010).

How the values were obtained:
Neuraminidase [1] = biological target: T1, Neuraminidase (Influenza A virus, UniProt B4URF0)
Neuraminidase [2] = biological target: T1, Neuraminidase; remark: listed apart in the source

| Compound | Ki (Neuraminidase [1]) [µM] | IC50 (Neuraminidase [2]) [µM] |
| --- | --- | --- |
| COc1c(C)c(O)c(C)c(O)c1C(=O)/C=C/c1ccc(O)cc1 | 24.9 | 8.15 |
| COc1cc(O)c(C)c(O)c1C(=O)/C=C/c1ccccc1 | 12 | 93.8 |
| COc1c(C)c(O)c(C)c(O)c1C(=O)/C=C/c1ccccc1 | 41.4 | 35.2 |
| COc1c(C)c(O)c(C)c(O)c1C(=O)/C=C/c1ccccc1O | 34.1 | 10 |
